## Ab-95 light chain CDR variants: yeast mating affinities

From the AlphaSeq antibody data of Engelhart et al. 2022 (doi:10.1038/s41597-022-01779-4), copy in the FLAb collection.

All variants were tested on one target, the spike HR2 peptide PDVDLGDISGINAS (SARS-CoV-2).

The variants keep the heavy chain, the linker and the frameworks of Ab-95 (scFv order VH, a 15-residue (Gly4Ser)3 linker, VL).
VH: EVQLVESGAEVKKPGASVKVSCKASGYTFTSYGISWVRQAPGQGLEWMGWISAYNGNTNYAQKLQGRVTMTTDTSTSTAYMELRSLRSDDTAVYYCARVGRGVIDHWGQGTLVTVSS
VL: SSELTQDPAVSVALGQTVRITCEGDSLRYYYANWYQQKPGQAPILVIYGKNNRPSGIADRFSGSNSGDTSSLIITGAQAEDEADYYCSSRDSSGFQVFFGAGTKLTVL

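The parent was found by panning a naive human phage display library on the peptide. AAYL52 was designed without a model: most single CDR substitutions and a random sample of double and triple ones. AlphaSeq pools MATa yeast showing the antibodies with MATalpha yeast showing the peptide. The frequency of each diploid, read from paired DNA barcodes, reflects how well the two displayed proteins bind. The ratio of observed to expected reads was calibrated, replicate by replicate, on BCL2-family standards whose Kd was known from biolayer interferometry. Mating was done three times.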

Each variant is given by its three light chain CDRs, as the data file delimits them; those of the parent are EGDSLRYYYAN, GKNNRPS, SSRDSSGFQVF.
Affinities are written as log10 Kd with Kd in nM; a lower number is a better binder.
Averages over replicates are reported, and they cover detected replicates only.
A pair that was not seen in that replicate is written "n.d."; this usually means weak binding, but a binder can also be missed.
For reference, the parent read 2.31 as the reference entry and 2.25 as a member of this library.
Empty control strains, which show no peptide, gave a signal in 28% of pairings with library AAYL52; the median was 3.91 and 95% of these signals were weaker than 2.90. No background was subtracted. Also given: how often the same scFv was detected with the empty control strains, with their mean in brackets.

| CDR-L1 | CDR-L2 | CDR-L3 | log10 Kd (nM) by replicate | mean, log10 nM | signal with controls |
|---|---|---|---|---|---|
| EGDSLRQYYAN | GKMNRPS | GSRDSSGFQVF | 3.41 4.19 4.18 | 3.93 | 3 of 9 (4.31) |
| EGDSLRYYYAN | GKNTRPS | SSRDSSGFQVF | 1.86 2.03 1.39 | 1.76 | 4 of 9 (4.05) |
| EGDSLCYNYAN | GSNNRPS | SSRDSSGFQVF | 1.80 1.74 1.41 | 1.65 | 2 of 9 (3.72) |
| EGDSLRYYQAN | GKNIRPS | SSDDSSGFQVF | 3.34 3.58 2.52 | 3.15 | 0 of 9 |
| EGDSLRYYYAN | GKNNVPS | ISRDSSEFQVF | n.d. n.d. n.d. | n.d. | 1 of 9 (3.62) |
| EGDSLRYYYAN | GKQNRPS | SSRDSSLFQEF | 3.73 2.73 3.35 | 3.27 | 4 of 9 (4.10) |
| EEDSLRYYYAN | GKNNPPS | KSRDSSGFQVF | n.d. 3.91 n.d. | 3.91 | 0 of 9 |
| EGDSLRYYYAN | GKWNRPS | LSRCSSGFQVF | 3.64 4.62 n.d. | 4.13 | 3 of 9 (4.67) |
| EGDSLRYYYKN | GKNNRIS | SSRDSSGFQVF | 2.82 2.46 n.d. | 2.64 | 4 of 9 (4.40) |
| EGDSLRYYYKN | GKNNRPS | SSLDSSGFQPF | 3.60 3.46 n.d. | 3.53 | 2 of 9 (4.03) |
| EGDSLRYYYAN | GKPNRPS | SSHDSSGFQVF | n.d. 4.49 3.74 | 4.11 | 0 of 9 |
| DVDSLRYYYAN | GKNNRSS | SSRDSSGFQVF | 4.21 n.d. n.d. | 4.21 | 5 of 9 (4.03) |
| EGDSLRYYYCN | GINNRPS | SSRDSSGFYVF | 4.02 4.51 3.41 | 3.98 | 3 of 9 (3.61) |
| LGDSLRYYYAN | GKNNRPS | SSRDFSGFHVF | n.d. 3.15 2.71 | 2.93 | 2 of 9 (4.58) |
| EGDSLRYYYAN | GKNNRPS | SWRDSSGFQVF | 2.59 1.92 1.83 | 2.11 | 3 of 9 (3.60) |
| EGDSLRCYYLN | GKNNRPS | SRRDSSGFQVF | 3.66 3.35 2.22 | 3.08 | 0 of 9 |
| EGDRLRYYYAD | PKNNRPS | SSRDSSGFQVF | 4.23 n.d. n.d. | 4.23 | 6 of 9 (4.18) |
| EGDSLRYYYAN | GKNNEPS | SLWDSSGFQVF | n.d. n.d. n.d. | n.d. | 1 of 9 (3.21) |
| EGDSARYYYAN | GKNNRPS | SSRASSFFQVF | 4.38 3.42 3.95 | 3.92 | 0 of 9 |
| EGDSLRYYYWN | PKNNRPS | SSRDSSGFQWF | n.d. n.d. n.d. | n.d. | 4 of 9 (3.57) |
| EGDSLNYYYAN | GKNNRPS | SQRDTSGFQVF | 2.61 2.35 4.10 | 3.02 | 3 of 9 (4.22) |
| ESDSLRYYYQN | GKNNRPS | SSRDSSGMQVF | 3.85 5.09 4.01 | 4.32 | 4 of 9 (3.48) |
| RGDSLRYYYAN | GPNNRPS | SSRLSSGFQVF | 2.74 2.40 2.34 | 2.49 | 1 of 9 (5.66) |
| EGDSLRYYYAN | GKNNRPS | SHRDSSGDCVF | 2.99 2.35 2.72 | 2.69 | 1 of 9 (4.97) |
| EGDSLRYYYAR | GKNNRPS | SSYDYSGFQVF | n.d. n.d. n.d. | n.d. | 3 of 9 (3.32) |
| EGDALRYYYAN | GKNNQPS | SSRDSSGFQRF | n.d. n.d. 3.41 | 3.41 | 3 of 9 (3.57) |
| EGDSLRMYYAN | GKNNRNS | SSRDSSGPQVF | n.d. n.d. 2.83 | 2.83 | 3 of 9 (3.79) |
| TGDSLTYYYAN | GKNNRPS | LSRDSSGFQVF | n.d. n.d. n.d. | n.d. | 3 of 9 (4.26) |
| EGDSLRYYYAN | GKNNRPS | SSEDSSGFHVD | 2.47 3.10 3.13 | 2.90 | 5 of 9 (3.53) |
| EGDSLSYYYAN | PKINRPS | SSRDSSGFQVF | 3.21 n.d. n.d. | 3.21 | 4 of 9 (3.58) |
| EGDSLRYYYAM | GKNNRPS | NSRDSIGFQVF | 3.78 3.73 n.d. | 3.75 | 2 of 9 (3.88) |
| ELDSLHYYYAN | GKNNRPS | YSRDSSGFQVF | n.d. n.d. 2.75 | 2.75 | 3 of 9 (4.03) |
| EGDSLRRYYRN | GKNNRNS | SSRDSSGFQVF | 5.71 5.96 4.30 | 5.32 | 1 of 9 (4.41) |
| EGDSLRYYYAN | IKNNRPS | SSRDESGFQLF | 4.91 n.d. n.d. | 4.91 | 1 of 9 (3.45) |
| EGDSLRYYYVD | GKNLRPS | SSRDSSGFQVF | n.d. 4.49 n.d. | 4.49 | 1 of 9 (2.89) |
| CGDSLIYYYAN | GKNNRPS | SSRVSSGFQVF | n.d. n.d. n.d. | n.d. | 3 of 9 (3.53) |
| EGDSLRYYYAN | GKNNRPS | STIDSSGFQVF | 5.76 n.d. n.d. | 5.76 | 4 of 9 (3.74) |
| EGDELRYYYAN | GKNNRPS | SMIDSSGFQVF | 4.25 n.d. n.d. | 4.25 | 1 of 9 (4.09) |
| EGDSLRYYYAN | GCNNRPS | SSRDSSGFQVF | 2.94 2.82 2.30 | 2.69 | 5 of 9 (4.21) |
| EGDSLRYYYAN | GKNNRPS | SSRDISGFQVF | 2.70 3.22 2.77 | 2.90 | 2 of 9 (4.80) |
| EGDSLRYYYAN | GKNNRPS | SWRWSSGFQVH | 3.86 n.d. n.d. | 3.86 | 1 of 9 (5.02) |
| EGDCLRLYYAN | GKNNIPS | SSRDSSGFQVF | n.d. 3.18 n.d. | 3.18 | 4 of 9 (3.91) |
| EGHSLRYYYAH | GKNGRPS | SSRDSSGFQVF | n.d. n.d. n.d. | n.d. | 1 of 9 (5.13) |
| EGDNLRYYYAN | GKNHRPS | ESRDSSGFQVF | 3.33 2.62 2.93 | 2.96 | 6 of 9 (4.11) |
| EGDWSRYYYAN | GKNNRPS | SMRDSSGFQVF | 3.34 3.11 3.04 | 3.16 | 0 of 9 |
| EGDSLRYYHAN | GKNWRPS | SSRDSSGFQVF | 2.18 2.28 1.96 | 2.14 | 4 of 9 (4.20) |
| ENDSLRYYMAN | GNNNRPS | SSRDSSGFQVF | 3.28 3.65 2.83 | 3.26 | 4 of 9 (4.46) |

The first 7 variants above that were never detected:

| CDR-L1 | CDR-L2 | CDR-L3 | log10 Kd (nM) by replicate | mean, log10 nM | signal with controls |
|---|---|---|---|---|---|
| EGDSLRYYYAN | GKNNVPS | ISRDSSEFQVF | n.d. n.d. n.d. | n.d. | 1 of 9 (3.62) |
| EGDSLRYYYAN | GKNNEPS | SLWDSSGFQVF | n.d. n.d. n.d. | n.d. | 1 of 9 (3.21) |
| EGDSLRYYYWN | PKNNRPS | SSRDSSGFQWF | n.d. n.d. n.d. | n.d. | 4 of 9 (3.57) |
| EGDSLRYYYAR | GKNNRPS | SSYDYSGFQVF | n.d. n.d. n.d. | n.d. | 3 of 9 (3.32) |
| TGDSLTYYYAN | GKNNRPS | LSRDSSGFQVF | n.d. n.d. n.d. | n.d. | 3 of 9 (4.26) |
| CGDSLIYYYAN | GKNNRPS | SSRVSSGFQVF | n.d. n.d. n.d. | n.d. | 3 of 9 (3.53) |
| EGHSLRYYYAH | GKNGRPS | SSRDSSGFQVF | n.d. n.d. n.d. | n.d. | 1 of 9 (5.13) |